Binding of CDR-mutated scFvs to a peptide of the spike HR2 region

Target peptide (SARS-CoV-2 spike, HR2 region): PDVDLGDISGINAS

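The starting antibody came from a phage panning campaign against this peptide. The library (AAYL49) carries one to three amino acid substitutions per variant, with no insertions or deletions. The scFvs were displayed on barcoded MATa yeast, the peptide on MATalpha yeast. After mating in shaken culture at 30 °C for 16 h, diploids were selected and their barcode pairs sequenced. A regression on co-assayed BCL2-family reference pairs converts the normalised counts of each replicate to an apparent Kd. There are three technical replicates.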

Each scFv is VH, a (GGGGS)3 linker, VL, as in the parent Ab-14, and differs from it in the CDRs of the heavy chain only.
VH: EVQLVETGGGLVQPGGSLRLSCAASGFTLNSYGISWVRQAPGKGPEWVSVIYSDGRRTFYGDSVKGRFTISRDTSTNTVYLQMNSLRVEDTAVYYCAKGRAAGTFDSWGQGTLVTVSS
VL: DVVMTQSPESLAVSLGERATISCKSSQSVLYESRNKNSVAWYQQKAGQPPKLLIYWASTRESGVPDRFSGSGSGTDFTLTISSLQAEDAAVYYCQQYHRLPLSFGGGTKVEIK

Changes read parent residue, position, new residue, counted from the first residue of the VH shown.
All variants listed here change F105 of the VH, counted from its first residue.
Each Kd is an estimate from the mating assay, the geometric mean of the replicates in which the pair was seen; lower is stronger.
A pair that was not seen in any replicate is written "no signal"; this usually means weak binding, but a binder can also be missed.
Nonspecific signal, from three strains lacking the peptide, appeared in 15% of pairings of library AAYL49, centred on 11 µM (5% of these signals below 680 nM); values are not corrected for it.

| changes | Kd | detected |
|---|---|---|
| Y32L Y60W F105N | no signal | 0 of 3 |
| T28A I34N F105P | no signal | 0 of 3 |
| N30K V64T F105G | no signal | 0 of 3 |
| L29G D54H F105E | no signal | 0 of 3 |
| G55D G99L F105T | no signal | 0 of 3 |
| S35I F105W | 17 µM | 1 of 3 |
| V64R A101C F105M | no signal | 0 of 3 |
| G61P R100Q F105G | 33 µM | 1 of 3 |
| S31T G33F F105R | no signal | 0 of 3 |
| V64F K65I F105M | no signal | 0 of 3 |
| V50P F105L | no signal | 0 of 3 |
| G61Q A101C F105Y | 1.4 µM | 3 of 3 |
| V50M S53G F105Y | 380 µM | 1 of 3 |
| L29R G33K F105T | no signal | 0 of 3 |
| L29D R100G F105S | 2.7 µM | 1 of 3 |
| L29I I51K F105K | no signal | 0 of 3 |
| G61K G99P F105D | 68 nM | 3 of 3 |
| L29H Y52D F105P | 48 µM | 3 of 3 |
| Y32R S53P F105R | no signal | 0 of 3 |
| N30D A102H F105S | no signal | 0 of 3 |
| V50H S63T F105H | 96 µM | 1 of 3 |
| I51V F105Q | 4.4 µM | 3 of 3 |
| V50D T58D F105G | no signal | 0 of 3 |
| F27N T104F F105C | 99 nM | 3 of 3 |
| N30I F105T D106N | no signal | 0 of 3 |
| S35C F105I | no signal | 0 of 3 |
| Y52K A101R F105T | no signal | 0 of 3 |
| F27K S31Y F105L | 14 nM | 3 of 3 |
| V50A F105A | 6.7 µM | 1 of 3 |
| R100N T104F F105W | 76 µM | 1 of 3 |
| F27I G103V F105C | 82 µM | 1 of 3 |
| T58H F105P S107W | 270 nM | 3 of 3 |
| N30C V50H F105S | 72 µM | 1 of 3 |
| R100S G103W F105A | 320 µM | 1 of 3 |
| T28P A101H F105I | 210 µM | 1 of 3 |
| F27Y T58F F105W | no signal | 0 of 3 |
| S53I G103D F105M | no signal | 0 of 3 |
| V64E G103A F105E | 57 µM | 2 of 3 |
| S53Q G99K F105V | 17 µM | 1 of 3 |
| T28G S31A F105R | 21 nM | 3 of 3 |
| R56A F105H S107V | no signal | 0 of 3 |
| S53P G55F F105D | no signal | 0 of 3 |
| V64C A102P F105V | 8.6 µM | 1 of 3 |
| S35L S63Y F105P | no signal | 0 of 3 |
| L29D S31M F105Q | 2.1 µM | 2 of 3 |
| R56E S63R F105E | 15 nM | 3 of 3 |
| V50G R100C F105V | no signal | 0 of 3 |
| D54V D62N F105A | 19 µM | 3 of 3 |

For reference, 3 entries of the list once more:

changes	Kd	detected
G61K G99P F105D	68 nM	3 of 3
F27N T104F F105C	99 nM	3 of 3
V50H S63T F105H	96 µM	1 of 3

Source: Engelhart et al. 2022 (doi:10.1038/s41597-022-01779-4), MIT Lincoln Laboratory and A-Alpha Bio; data file from the FLAb repository.